Data: ChEMBL document CHEMBL4402526, “Design and Synthesis of Fungal-Selective Resorcylate Aminopyrazole Hsp90 Inhibitors” (J Med Chem, 2020)

What was measured:
[1] = Displacement of Cy3-labeled geldanamycin from HSP90 in Cryptococcus neoformans H99 cell lysate measured after […] by fluorescence polarization assay; type: subcellular
[2] = Displacement of Cy3-labeled geldanamycin from HSP90 in Candida albicans clinical isolate 2 cell lysate measured after […] by fluorescence polarization assay; type: subcellular

Structure (SMILES) | EC50 [1] | EC50 [2]
Cn1nc(-c2ccccc2)cc1Nc1cc(O)cc(O)c1C(=O)N1Cc2cccnc2C1 | 127 nM | 
COc1ccc(Cn2ncc(C(C)C)c2Nc2cc(O)cc(O)c2C(=O)N2Cc3ccccc3C2)cc1 | 396 nM | 
CC(C)n1nccc1Nc1cc(O)cc(O)c1C(=O)N1Cc2ccccc2C1 | 125 nM | 
O=C(c1c(O)cc(O)cc1Nc1cc(-c2ccccc2)nn1C1CCCCC1)N1Cc2cn[nH]c2C1 | 419 nM | 
COc1ccc(Cn2ncc(Cc3ccccc3)c2Nc2cc(O)cc(O)c2C(=O)N2Cc3ccccc3C2)cc1 | 1760 nM | 
Cc1ccc(-c2cc(Nc3cc(O)cc(O)c3C(=O)N3Cc4cccnc4C3)n(C)n2)cc1 | 1780 nM | 1780 nM
COc1ccc(Cn2nc(C)cc2Nc2cc(O)cc(O)c2C(=O)N(C)Cc2ccccc2)cc1 | 4810 nM | 
Cn1nccc1Nc1cc(O)cc(O)c1C(=O)N1Cc2cn[nH]c2C1 | 142 nM | 
CC(C)(C)n1nc(-c2ccccc2)cc1Nc1cc(O)cc(O)c1C(=O)N1Cc2cn[nH]c2C1 | 379 nM | 
COc1ccc(Cn2nc(C)cc2Nc2cc(O)cc(O)c2C(=O)N(C)CC2CC2)cc1 | 1330 nM | 
Cc1ccc(Cn2nc(C)cc2Nc2cc(O)cc(O)c2C(=O)N2Cc3ccccc3C2)cc1 | 252 nM | 
COc1ccc(Cn2ncc(-c3ccccc3)c2Nc2cc(O)cc(O)c2C(=O)N2Cc3ccccc3C2)cc1 | 1620 nM | 
O=C(c1c(O)cc(O)cc1Nc1ccnn1Cc1cccnc1)N1Cc2cccnc2C1 | 207 nM | 
O=C(c1c(O)cc(O)cc1Nc1cc(-c2ccccc2)nn1C1CCCCC1)N1Cc2cccnc2C1 | 615 nM | 
CC(C)(C)n1nc(-c2ccccc2)cc1Nc1cc(O)cc(O)c1C(=O)N1Cc2cccnc2C1 | 517 nM | 
O=C(c1c(O)cc(O)cc1Nc1ccnn1Cc1ccco1)N1Cc2cccnc2C1 | 106 nM | 
Cn1nccc1Nc1cc(O)cc(O)c1C(=O)N1Cc2cccnc2C1 | 286 nM | 
